Protein sequences, listed by entry. Tags and fused reporters are not part of them. Lines headed by an entry give the natural chain unless they say otherwise; changes in a name come on top.
UniProt P43490: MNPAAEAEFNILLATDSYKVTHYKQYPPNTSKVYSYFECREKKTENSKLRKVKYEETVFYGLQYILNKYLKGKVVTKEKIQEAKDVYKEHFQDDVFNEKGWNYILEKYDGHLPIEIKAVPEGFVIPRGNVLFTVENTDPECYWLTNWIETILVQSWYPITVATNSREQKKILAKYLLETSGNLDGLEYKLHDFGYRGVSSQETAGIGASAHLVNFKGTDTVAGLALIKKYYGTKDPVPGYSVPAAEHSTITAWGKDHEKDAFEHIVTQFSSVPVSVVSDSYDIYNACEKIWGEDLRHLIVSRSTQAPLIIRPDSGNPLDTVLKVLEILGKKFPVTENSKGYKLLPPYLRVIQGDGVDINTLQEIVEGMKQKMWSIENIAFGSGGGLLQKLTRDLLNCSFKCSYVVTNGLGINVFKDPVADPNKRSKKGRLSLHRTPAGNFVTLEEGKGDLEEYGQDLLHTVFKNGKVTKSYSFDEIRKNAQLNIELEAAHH

In ChEMBL document CHEMBL3886617, “NAMPT and rock inhibitors” (2016):

Biological target: Nicotinamide phosphoribosyltransferase (Homo sapiens, UniProt P43490)

CCCNC(=O)c1ccc(NC(=O)N2Cc3ccc(CN)cc3C2)cc1
IC50: 298 nM

CN(CC(O)c1ccccc1)C(=O)c1ccc(NC(=O)N2Cc3ccccc3C2)cc1 (stereo unspecified)
IC50: 154 nM

CCCC(=O)N[C@@H]1CCN(c2ccc(NC(=O)N3Cc4ccccc4C3)cc2)C1
IC50: 783 nM

COC[C@H](C)NC(=O)c1ccc(NC(=O)N2Cc3ccccc3C2)cc1
IC50: 255 nM

O=C(NC1CCCCC1)c1ccc(NC(=O)N2Cc3ccccc3C2)cc1
IC50: 133 nM

O=C(NCCN1CCCC1=O)c1ccc(NC(=O)N2Cc3ccc(F)cc3C2)cc1
IC50: 15 nM
